Like-named read-outs stand apart in the source and are kept apart here.
Legend:
[1] = target: human lung fibroblast collagenase (Homo sapiens, UniProt P03956); assay: Collagenase inhibitor assay, human lung fibroblast collagenase (14C-collagen fibril degradation); details: collagenase from WI-38 culture supernatants
Procedure: (§1) The test is performed essentially as in Cawston and Barrett, Anal. Biochem. 99, 340-345 (1979). Compounds for testing are dissolved in methanol and added to collagenase (purified from cultures of rabbit bone or from culture supernatants from the human lung fibroblast cell line, WI-38) in buffer. In order to ensure that thiol collagenase inhibitors remained unoxidised, β-mercaptoethanol may be incorporated in the methanol solvent and/or the diluent buffers. The minimal direct effect of β-mercaptoethanol on the degradation of collagen by human or rabbit collagenase is controlled for. After a 5-15 min pre-incubation at 37° C., the assay tubes are cooled to 4° C. and ^14 C-acetylated rat skin […] collagen is added. The assay tubes are incubated at 37° C. overnight. The ^14 C-collagen forms insoluble fibrils which are the substrate for the enzyme.
(§2) To terminate the assay, the assay tubes are spun at 12000 rpm for 15 min. Undigested ^14 C-collagen is pelleted, while digested ^14 C-collagen is found as soluble peptides in the supernatant. A sample of the supernatant is taken for liquid scintillation counting.
(§3) The activity of collagenase inhibitors (IC50 : 50% inhibitory concentration) is expressed as that concentration of compound that inhibits a known (standard) concentration of enzyme by 50%.

The chains behind the UniProt entries cited, without tags or fusion partners. Residues count along the entry.
UniProt P03956, 100-469 limits assumed: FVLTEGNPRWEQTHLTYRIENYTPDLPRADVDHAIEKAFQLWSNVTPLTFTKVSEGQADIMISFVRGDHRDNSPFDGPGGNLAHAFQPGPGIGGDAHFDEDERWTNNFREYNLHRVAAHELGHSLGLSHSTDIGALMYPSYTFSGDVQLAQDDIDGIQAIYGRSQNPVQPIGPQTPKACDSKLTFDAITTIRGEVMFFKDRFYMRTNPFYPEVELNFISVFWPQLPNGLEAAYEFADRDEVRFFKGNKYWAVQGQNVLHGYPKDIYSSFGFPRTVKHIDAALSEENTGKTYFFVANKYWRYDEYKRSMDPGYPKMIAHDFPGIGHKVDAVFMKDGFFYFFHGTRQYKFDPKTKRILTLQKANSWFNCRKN
UniProt P13943, 99-468 limits assumed: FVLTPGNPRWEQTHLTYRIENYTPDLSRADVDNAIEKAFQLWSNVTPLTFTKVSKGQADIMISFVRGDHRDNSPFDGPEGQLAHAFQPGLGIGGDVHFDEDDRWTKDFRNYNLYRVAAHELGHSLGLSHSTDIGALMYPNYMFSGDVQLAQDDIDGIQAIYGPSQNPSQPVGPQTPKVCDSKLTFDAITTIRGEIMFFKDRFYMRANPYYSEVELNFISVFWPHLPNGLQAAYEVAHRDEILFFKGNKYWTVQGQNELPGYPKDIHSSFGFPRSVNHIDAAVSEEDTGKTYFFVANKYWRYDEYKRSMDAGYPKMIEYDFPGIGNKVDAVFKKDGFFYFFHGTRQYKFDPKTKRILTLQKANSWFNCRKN

rabbit bone collagenase = rabbit bone collagenase (Oryctolagus cuniculus, UniProt P13943); assay: Collagenase inhibitor assay, rabbit bone collagenase (14C-collagen fibril degradation); details: read-out: IC50, Inhibition of rabbit bone collagenase; collagenase purified from cultures of rabbit bone; 14C-acetylated collagen substrate, 37° C. overnight
Procedure: as §1, §2, §3

IC50 ([1]; read-out: IC50, Inhibition of human lung fibroblast collagenase, +mercaptoethanol, * = +mercaptoethanol) [µM] | IC50 ([1]; read-out: IC50, Inhibition of human lung fibroblast collagenase, without mercaptoethanol) [µM] | IC50 (rabbit bone collagenase) [µM] | SMILES
0.024 | 0.71 | 1.4 | CNC(=O)[C@H](Cc1ccc(OC)cc1)NC(=O)C(Cc1ccccc1S)CC(C)C (single isomer, unassigned) [1 B]
 |  | 1.9 | CNC(=O)[C@H](Cc1ccc(OC)cc1)NC(=O)C(Cc1ccccc1S)CC(C)C (single isomer, unassigned) [1 A]
